Data: patent publication US20050214898A1, “Methods of carotenoid production in bacteria” (priority 2004, published 2005)

Tested on: F. multivorum
Experiment: Effect of TCA cycle intermediates in the growth medium on zeaxanthin production
Type: cell-based, Flavobacterium multivorum
Conditions: growth medium supplemented with TCA intermediate
Experimental: Pigment extraction from bacterial cells. One ml of culture broth was centrifuged at 5000 rpm for 10 min at 4° C. The supernatant was discarded and media components of the cell pellet were washed away by repeated suspension in sterile distilled water and centrifugation. The cell mass was subjected to sonication using a sonic dismembrator (Fisher Scientific, Model number F60) in the presence of 1 ml cold, oxygen-free methanol containing 0.01% butylated hydroxy toluene (BHT) (w/v) for 30 seconds (output power 5). Methanol extraction was repeated for complete extraction of carotenoids. The sonicated sample was centrifuged to remove the white cell pellet. The supernatant contains extracted carotenoids.
High performance liquid chromatography (HPLC). The pigments in methanol were dried by vacuum evaporation in a Speedvac Plus (SC 110, Savant) and re-dissolved in one ml of HPLC mobile phase (hexane: dichloromethane: methanol: N,N′-di-isopropylethylamine (80:19.2:0.7:0.1 v/v)). HPLC separation was carried out at a flow rate of 1.0 ml min^−1 on a cyano column (Microsorb 25 cm length×4.6 mm id, Rainin Instrument Co. Woburn, Mass., U.S.A.). The column was maintained at room temperature and the HPLC detector was operated at 450 nm.
Media optimization for zeaxanthin production.

α-ketoglutarate
effect on the volumetric production of zeaxanthin: maximum stimulatory effect
